Test results as given in patent publication US4454158A, “Allyl amine MAO inhibitors” (Merrell Toraude et Compagnie, priority 1981, dated 1984).

System: MAO
Assay: Inhibition of MAO - Ex vivo, rat (14C p-tyramine substrate)
Type: in vivo
Settings: 1.0 mg/kg po, 2 hr
Experimental: The ability of a compound of Formula I or II to inhibit MAO can be determined ex vivo by the following procedure:
The test compound is administered intraperitoneally (ip), intravenously (iv), or orally (po) to rats or mice and the animals are killed at various times after treatment. […] MAO activity is determined in the homogenates using ^14 C p-tyramine, as the substrate. […] Selectivity can be determined by repeating the above-described test using either ^14 C 5-hydroxytryptamine (for MAO-A) or ^14 C phenethylamine (for MAO-B) as the substrate for determining the % inhibition

For `C#CCN(C)[C@H](C)Cc1ccccc1` [L-deprenyl, reference compound], the “% Inhibition of MAO - Liver” value was 91%.
